# Laboratory results: paper PMC6269003, “Two New Coumarins from Micromelum falcatum with Cytotoxicity and Brine Shrimp Larvae Toxicity” (Molecules, 2012)
# Tested on: brine shrimp larvae
# Conditions: 96 well plates assay
# Procedure: According to the method described by Wanyoike, brine shrimp eggs (Ocean Star International, Inc., USA) were hatched in a large beaker containing natural sea water (South China Sea) and they were cultured at room temperature for 48 h. With the help of a light source, the larvae grouped together on one side of the vessel and were easily collected for the assay. […] Each test was processed in triplicate with approximate ten larvae. Brine shrimps were counted under a magnifying glass after 24 h of incubation and maintaining the 96 well plates under illumination. The controls were prepared in the same manner except that the test samples were omitted.
substance,measurement,value
microfalcatin isovalerate [Compound 14],LC50 against brine shrimp larvae,< 500 µM
